# Test results as given in PubChem BioAssay AID540333 (Southern Research Specialized Biocontainment Screening …, 2011).
# Only a part is listed here, and it is no random draw. Some results for these compounds are left out of this collection, so the calls shown say nothing about other tests. Activity calls are given as the source filed them. Rule as the data show it: active = CPE inhibition mostly above about 9.1% (no sharp cut-off); inactive = mostly below about 7.2%.
# Assay: Dengue virus cytopathic effect inhibitors, cell-based, CPE readout, HTS (AID 540333)
# Settings: Dengue virus CPE inhibition in host cells; at 20 µM; active compounds read high
row,Compound,CPE inhibition
1,CN(C)C1CCCC1OC(=O)C(O)(c1ccccc1)c1ccccc1 (stereo unspecified),inactive: 0.02%
